Source: ChEMBL document CHEMBL1147874, “Structure-activity based study of the Smac-binding pocket within the BIR3 domain of XIAP” (Bioorg Med Chem, 2007)

Protein sequences, listed by entry. Tags and fused reporters are not part of them.
UniProt P98170, whole entry: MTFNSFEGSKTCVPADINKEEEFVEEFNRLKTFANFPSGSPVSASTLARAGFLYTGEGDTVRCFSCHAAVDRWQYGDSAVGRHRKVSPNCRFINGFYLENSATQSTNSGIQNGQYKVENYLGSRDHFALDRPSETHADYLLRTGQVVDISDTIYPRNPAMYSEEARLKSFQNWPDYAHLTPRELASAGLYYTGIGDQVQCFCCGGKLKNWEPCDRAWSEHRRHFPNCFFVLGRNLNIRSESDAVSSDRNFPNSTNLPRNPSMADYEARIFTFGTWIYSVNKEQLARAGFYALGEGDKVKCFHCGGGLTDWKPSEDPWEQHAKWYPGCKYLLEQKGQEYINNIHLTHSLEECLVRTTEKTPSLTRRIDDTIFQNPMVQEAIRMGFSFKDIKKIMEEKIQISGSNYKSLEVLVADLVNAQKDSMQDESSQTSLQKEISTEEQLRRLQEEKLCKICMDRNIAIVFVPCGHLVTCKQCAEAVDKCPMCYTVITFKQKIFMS

Biological target: E3 ubiquitin-protein ligase XIAP (Homo sapiens, UniProt P98170)
Test: Binding affinity to BIR3 domain of XIAP by competitive fluorescent binding assay

- Kd: 500 nM
Compound: CC(C)[C@H](NC(=O)[C@H](C)N)C(=O)N1CCC[C@H]1C(=O)N[C@@H](Cc1ccccc1)C(=O)O
